Reference: ChEMBL document CHEMBL5625280, “Discovery of novel nucleoside derivatives as selective lysine acetyltransferase p300 inhibitors for cancer therapy” (Bioorg Med Chem Lett, 2024)

Amino acid sequences for entries named in this document (tags omitted).
UniProt Q09472, whole entry: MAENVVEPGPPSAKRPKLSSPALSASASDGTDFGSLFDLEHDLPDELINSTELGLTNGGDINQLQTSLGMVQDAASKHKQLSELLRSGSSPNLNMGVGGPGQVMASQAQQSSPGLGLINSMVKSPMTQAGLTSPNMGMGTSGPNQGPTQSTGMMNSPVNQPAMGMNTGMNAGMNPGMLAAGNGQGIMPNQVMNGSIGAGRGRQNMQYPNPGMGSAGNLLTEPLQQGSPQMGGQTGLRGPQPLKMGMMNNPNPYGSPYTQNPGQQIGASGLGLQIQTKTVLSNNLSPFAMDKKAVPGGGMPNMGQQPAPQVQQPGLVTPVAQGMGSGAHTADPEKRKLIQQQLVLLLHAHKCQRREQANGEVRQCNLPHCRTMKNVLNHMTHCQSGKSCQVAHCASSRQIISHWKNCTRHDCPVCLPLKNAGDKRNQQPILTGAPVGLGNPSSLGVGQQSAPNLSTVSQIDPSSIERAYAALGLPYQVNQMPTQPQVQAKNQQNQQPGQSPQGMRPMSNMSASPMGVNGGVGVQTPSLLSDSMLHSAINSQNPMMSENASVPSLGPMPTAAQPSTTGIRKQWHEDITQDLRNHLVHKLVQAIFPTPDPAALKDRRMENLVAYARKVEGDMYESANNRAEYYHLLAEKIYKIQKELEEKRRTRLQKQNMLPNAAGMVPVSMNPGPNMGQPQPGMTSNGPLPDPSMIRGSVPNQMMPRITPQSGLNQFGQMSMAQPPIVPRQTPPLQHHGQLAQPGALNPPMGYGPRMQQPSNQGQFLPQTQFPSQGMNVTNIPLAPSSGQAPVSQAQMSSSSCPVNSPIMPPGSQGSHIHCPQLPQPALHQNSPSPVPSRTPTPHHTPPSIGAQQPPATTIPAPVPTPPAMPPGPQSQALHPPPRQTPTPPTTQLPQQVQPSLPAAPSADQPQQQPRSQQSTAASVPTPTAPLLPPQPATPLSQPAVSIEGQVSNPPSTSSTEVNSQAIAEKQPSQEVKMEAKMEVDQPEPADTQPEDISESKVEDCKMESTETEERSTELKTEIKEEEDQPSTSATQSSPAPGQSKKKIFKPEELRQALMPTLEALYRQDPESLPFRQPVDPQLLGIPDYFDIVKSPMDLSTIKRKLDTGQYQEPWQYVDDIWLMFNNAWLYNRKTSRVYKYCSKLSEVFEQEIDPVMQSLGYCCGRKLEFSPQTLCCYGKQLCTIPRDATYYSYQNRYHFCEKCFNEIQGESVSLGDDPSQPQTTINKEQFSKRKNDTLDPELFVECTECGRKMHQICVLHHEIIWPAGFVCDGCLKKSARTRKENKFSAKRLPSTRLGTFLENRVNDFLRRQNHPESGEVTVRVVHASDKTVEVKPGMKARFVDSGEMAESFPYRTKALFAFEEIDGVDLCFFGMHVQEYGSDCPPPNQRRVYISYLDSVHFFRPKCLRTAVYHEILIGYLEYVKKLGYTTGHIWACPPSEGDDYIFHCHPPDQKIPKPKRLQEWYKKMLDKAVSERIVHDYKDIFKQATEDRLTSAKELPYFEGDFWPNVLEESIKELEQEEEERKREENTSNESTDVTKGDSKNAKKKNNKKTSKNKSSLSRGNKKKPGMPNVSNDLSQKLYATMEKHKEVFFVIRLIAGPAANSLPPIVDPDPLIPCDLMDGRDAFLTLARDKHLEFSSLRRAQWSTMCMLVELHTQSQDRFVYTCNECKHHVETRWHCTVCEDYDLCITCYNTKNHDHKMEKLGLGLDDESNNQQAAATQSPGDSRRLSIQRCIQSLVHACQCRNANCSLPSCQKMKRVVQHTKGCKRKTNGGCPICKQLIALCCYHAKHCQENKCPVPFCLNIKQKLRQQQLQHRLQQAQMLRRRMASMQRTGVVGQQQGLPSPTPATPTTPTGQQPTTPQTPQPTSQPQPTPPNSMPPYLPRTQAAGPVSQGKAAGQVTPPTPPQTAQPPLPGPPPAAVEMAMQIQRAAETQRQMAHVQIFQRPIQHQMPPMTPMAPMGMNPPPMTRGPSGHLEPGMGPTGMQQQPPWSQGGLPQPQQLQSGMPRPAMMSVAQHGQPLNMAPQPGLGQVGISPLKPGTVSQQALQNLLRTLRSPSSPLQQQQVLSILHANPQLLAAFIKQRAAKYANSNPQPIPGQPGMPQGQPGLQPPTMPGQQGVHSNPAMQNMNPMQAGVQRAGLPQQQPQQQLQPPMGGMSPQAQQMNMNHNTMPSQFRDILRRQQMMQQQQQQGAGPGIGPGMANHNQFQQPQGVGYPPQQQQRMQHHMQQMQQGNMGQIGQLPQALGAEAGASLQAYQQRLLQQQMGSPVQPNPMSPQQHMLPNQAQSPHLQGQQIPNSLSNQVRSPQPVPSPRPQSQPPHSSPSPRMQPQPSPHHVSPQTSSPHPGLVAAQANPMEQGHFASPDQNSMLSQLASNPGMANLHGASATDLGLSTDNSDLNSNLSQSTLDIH

Biological target: Histone acetyltransferase p300 (Homo sapiens, UniProt Q09472)

IC50: 64 nM
SMILES: CO[C@H]1CC[C@H](n2c([C@@H]3CCCC(=O)N3c3ccc(F)c(F)c3)nc3cc(-c4c(C)noc4C)ccc32)CC1 [INOBRODIB]
